Protein sequences, listed by entry. Tags and fused reporters are not part of them.
UniProt Q8N371, whole entry: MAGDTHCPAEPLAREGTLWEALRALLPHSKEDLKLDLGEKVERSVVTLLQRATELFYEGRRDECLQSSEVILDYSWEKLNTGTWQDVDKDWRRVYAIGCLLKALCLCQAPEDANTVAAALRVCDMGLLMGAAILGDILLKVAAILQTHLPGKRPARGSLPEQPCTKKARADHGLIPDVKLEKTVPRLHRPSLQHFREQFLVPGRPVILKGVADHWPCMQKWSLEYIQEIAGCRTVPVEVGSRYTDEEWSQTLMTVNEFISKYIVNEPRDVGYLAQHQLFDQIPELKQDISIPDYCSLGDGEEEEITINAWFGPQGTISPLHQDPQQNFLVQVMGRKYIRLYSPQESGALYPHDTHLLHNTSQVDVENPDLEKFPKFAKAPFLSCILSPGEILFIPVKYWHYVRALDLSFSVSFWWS
UniProt B2RXH2, whole entry: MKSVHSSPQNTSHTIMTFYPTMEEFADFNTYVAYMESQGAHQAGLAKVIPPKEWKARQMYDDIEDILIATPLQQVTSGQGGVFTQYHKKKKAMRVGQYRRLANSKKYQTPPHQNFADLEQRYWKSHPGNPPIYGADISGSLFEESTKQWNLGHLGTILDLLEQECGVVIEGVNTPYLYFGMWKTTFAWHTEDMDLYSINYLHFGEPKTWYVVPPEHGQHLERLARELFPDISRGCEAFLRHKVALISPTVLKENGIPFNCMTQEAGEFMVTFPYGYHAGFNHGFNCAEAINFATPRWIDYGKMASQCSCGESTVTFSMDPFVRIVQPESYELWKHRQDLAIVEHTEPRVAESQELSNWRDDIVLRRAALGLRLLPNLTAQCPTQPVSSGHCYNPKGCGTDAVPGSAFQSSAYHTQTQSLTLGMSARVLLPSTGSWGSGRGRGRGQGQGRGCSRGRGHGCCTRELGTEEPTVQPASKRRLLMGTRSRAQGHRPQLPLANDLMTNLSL

According to publication PMC10246557, “Kinetic and inhibition studies on human Jumonji-C (JmjC) domain-containing protein 5” (RSC Chemical Biology, 2023):

Tests used:
human JMJD5 = human JMJD5 (Homo sapiens, UniProt Q8N371); experiment: SPE-MS JMJD5 turnover and kinetic assay (RPS6_128–148 hydroxylation); assay type: biochemical; conditions: absence of 2OG; JMJD5 0.15 μM, 2OG derivative 400 μM, Fe(II) 20 μM, RPS6_128–148 2.0 μM
human KDM4E = human KDM4E (Homo sapiens, UniProt B2RXH2); experiment: KDM4E SPE-MS turnover and kinetic assay (H3 K9(me3) peptide demethylation); assay type: biochemical; conditions: absence of 2OG; KDM4E 0.15 μM, 2OG derivative 330 μM, Fe(II) 50 μM, ARTAQTARK(me3)STGGIA 10.0 μM
human FIH = conditions: absence of 2OG; FIH 0.15 μM, 2OG derivative 330 μM, Fe(II) 50 μM, HIF-1α788–822 5.0 μM; cited from earlier work
human AspH = conditions: absence of 2OG; AspH 0.1 μM, 2OG derivative 330 μM, Fe(II) 50 μM, hFX-CP101–119 2.0 μM; cited from earlier work

CC(C)(C)CCC(CC(=O)O)C(=O)C(=O)O (stereo not drawn)
< 1%: JMJD5 (%): RPS6_128–148 hydroxylation with the compound as cosubstrate (human JMJD5) | KDM4E (%): substrate demethylation with the compound as cosubstrate (human KDM4E) | FIH (%): substrate hydroxylation with the compound as cosubstrate (human FIH) | AspH (%): substrate hydroxylation with the compound as cosubstrate (human AspH)

O=C(O)C(=O)c1cccc(C(=O)O)c1 [C00016]
< 1%: JMJD5 (%): RPS6_128–148 hydroxylation with the compound as cosubstrate (human JMJD5) | KDM4E (%): substrate demethylation with the compound as cosubstrate (human KDM4E) | FIH (%): substrate hydroxylation with the compound as cosubstrate (human FIH) | AspH (%): substrate hydroxylation with the compound as cosubstrate (human AspH)

Cc1cc(C)cc(CC(CC(=O)O)C(=O)C(=O)O)c1 (stereo not drawn)
< 1%: JMJD5 (%): RPS6_128–148 hydroxylation with the compound as cosubstrate (human JMJD5) | KDM4E (%): substrate demethylation with the compound as cosubstrate (human KDM4E) | FIH (%): substrate hydroxylation with the compound as cosubstrate (human FIH) | AspH (%): substrate hydroxylation with the compound as cosubstrate (human AspH)
